{"source": "patent US9175305B2", "about": "“Mutant hydroxyphenylpyruvate dioxygenase polypeptides and methods of use” (Syngenta Participations AG, priority 2009, dated 2015)", "experiment_in_all_cases": "biochemical", "format_in_all_cases": "binding", "key": {"HPPD SEQ ID NO:15": {"target": "HPPD SEQ ID NO:15 (Avena sativa, UniProt A0ACD5V6K6, DEL109-109/Q298A)", "description": "(§1) On rates (governed by an association rate constant, kon) for the formation of the enzyme: inhibitor complexes, EI and off rates (governed by a dissociation rate constant, koff) were determined by methods known in the art and essentially as described in Hawkes et al. (2001) Proc. Bright. Crop. Prot. Conf. Weeds, 2:563-568 and in PCT Patent App. Pub. No. WO 02/46387).\n(§2) For example, on rates were measured by, at zero time, adding ˜60 pmoles HPPD to 50 mM BisTrisPropane buffer at pH7.0 and at 25° C. containing 25 mM Na ascorbate, 4 μg/ml bovine catalase (Sigma, St. Louis, Mo.) and an excess (˜300 pmoles) of ^14C inhibitor in a total assay volume of 425 μl and, at various time points (0-180 s), quenching the radiolabel binding reaction by addition and rapid mixing of 100 μl ‘cold’ 1 mM structure A. Protein samples quenched at different times were then exchanged into 50 mM BisTrisPropane buffer at pH 7.0 containing 0.1M KCl by rapid chromatography down a NAP5 G25 Sephadex column (GE Healthcare Ltd, Buckinghamshire UK) and the amount of ^14C bound to protein fractions quantified in Optiphase scintillant using a Tri-Carb 2900TR scintillation counter (Perkin Elmer, Wellesley, Mass.). The data were fit according to the scheme below in order to derive the value of the apparent second order rate constant, k2, governing the association rate of enzyme and radiolabelled inhibitor. A range of enzyme and inhibitor concentrations were used. […] Further example methods are described in PCT Patent App. Pub. No. WO 02/46387.\n(§3) Off rates (k1 in the scheme below) were derived from exchange rate studies where either the test inhibitor, I, or its exchange partner, J were radiolabelled and the data fit according to the scheme below. As noted in Hawkes et al. (2001) Proc. Bright. Crop. Prot. Conf.\n(§4) After 30 minutes the exchange reaction was initiated with addition of 100 μl 1 mM ‘cold’ structure A with thorough mixing, and, immediately, 150 μl were withdrawn and loaded onto a NAP5 column, the protein exchanged into 50 mM BisTrisPropane buffer at pH 7.0 containing 0.1M KCl by rapid (<2 min) chromatography down a NAP5 G25 Sephadex column (GE Healthcare Ltd, Buckinghamshire UK) and the amount of ^14C bound to protein measured by Optiphase scintillant using a Tri-Carb 2900TR scintillation counter (Perkin Elmer, Wellesley, Mass.). Further aliquots were removed and measured in the same way at various times over minutes or hours as required in order to determine the exchange kinetics.\n(§5) After 30 minutes the reaction vessel was transferred to ice. After a further 10 minutes at ice temperature the exchange reaction was initiated by addition of 100 μl 1 mM Structure A, with thorough mixing, and 150 μl was withdrawn and loaded onto a NAP5 column in a cold room at ˜5-8° C. in order to quantify the amount of radiolabel remaining bound to the protein at various time from the start of exchange at ice temperature.\n(§6) Off rates (k1) of HPPD inhibitors that are not available radiolabelled or that present other measurement problems (for example high levels of background non-specific protein-binding which can be measured as radiolabel binding that persists in the presence of high concentrations of ‘cold’ inhibitor) may be measured indirectly. […] Exemplary methods are also described in PCT Patent App. Pub. No. WO 02/46387."}, "HPPD SEQ ID NO:16": {"target": "HPPD SEQ ID NO:16 (Avena sativa, UniProt A0ACD5V6K6, DEL109-109/Q298G)", "description": "as §1, §2, §3, §4, §5, §6"}, "HPPD SEQ ID NO:17": {"target": "HPPD SEQ ID NO:17 (Avena sativa, UniProt A0ACD5V6K6, DEL109-109/Q298S)", "description": "as §1, §2, §3, §4, §5, §6"}, "HPPD SEQ ID NO:18": {"target": "HPPD SEQ ID NO:18 (Avena sativa, UniProt A0ACD5V6K6, DEL109-109/I285T)", "description": "as §1, §2, §3, §4, §5, §6"}, "HPPD SEQ ID NO:19": {"target": "HPPD SEQ ID NO:19 (Avena sativa, UniProt A0ACD5V6K6, DEL109-109/I285A)", "description": "as §1, §2, §3, §4, §5, §6"}, "HPPD SEQ ID NO:20": {"target": "HPPD SEQ ID NO:20 (Avena sativa, UniProt A0ACD5V6K6, DEL109-109/I285S)", "description": "as §1, §2, §3, §4, §5, §6"}, "HPPD SEQ ID NO:21": {"target": "HPPD SEQ ID NO:21 (Avena sativa, UniProt A0ACD5V6K6, DEL109-109/I285V)", "description": "as §1, §2, §3, §4, §5, §6"}, "HPPD SEQ ID NO:22": {"target": "HPPD SEQ ID NO:22 (Avena sativa, UniProt A0ACD5V6K6, DEL109-109/L256M)", "description": "as §1, §2, §3, §4, §5, §6"}, "HPPD SEQ ID NO:23": {"target": "HPPD SEQ ID NO:23 (Avena sativa, UniProt A0ACD5V6K6, A242W/DEL109-109)", "description": "as §1, §2, §3, §4, §5, §6"}, "HPPD SEQ ID NO:24": {"target": "HPPD SEQ ID NO:24 (Avena sativa, UniProt A0ACD5V6K6, DEL109-109/L359M)", "description": "as §1, §2, §3, §4, §5, §6"}, "HPPD SEQ ID NO:25": {"target": "HPPD SEQ ID NO:25 (Avena sativa, UniProt A0ACD5V6K6, DEL109-109/L359A)", "description": "as §1, §2, §3, §4, §5, §6"}, "HPPD SEQ ID NO:26": {"target": "T1, HPPD SEQ ID NO:26 (Avena sativa, UniProt A0ACD5V6K6, DEL109-109/L256M/L359M)", "T1 sequence (A0ACD5V6K6 with tags, fused parts or gaps DEL109-109/L256M/L359M)": "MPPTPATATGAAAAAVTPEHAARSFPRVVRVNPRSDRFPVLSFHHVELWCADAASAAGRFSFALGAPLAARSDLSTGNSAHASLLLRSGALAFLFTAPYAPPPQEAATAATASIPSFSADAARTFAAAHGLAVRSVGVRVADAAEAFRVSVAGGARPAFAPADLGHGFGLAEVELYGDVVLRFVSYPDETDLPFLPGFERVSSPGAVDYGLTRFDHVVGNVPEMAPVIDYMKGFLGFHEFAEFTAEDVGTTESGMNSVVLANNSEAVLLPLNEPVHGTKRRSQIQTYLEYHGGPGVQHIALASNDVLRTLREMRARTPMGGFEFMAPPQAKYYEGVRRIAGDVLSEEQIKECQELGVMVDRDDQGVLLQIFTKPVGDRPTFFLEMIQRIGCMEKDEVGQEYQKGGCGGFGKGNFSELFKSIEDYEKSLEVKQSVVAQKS", "description": "as §1, §2, §3, §4, §5, §6"}}}
{"smiles": "CS(=O)(=O)c1ccc(C(=O)C2C(=O)CCCC2=O)c([N+](=O)[O-])c1", "note": "[Structure B, mesotrione]", "values": [{"measurement": "Kd", "setting": "HPPD SEQ ID NO:15", "result": 11.4, "unit": "nM"}, {"measurement": "koff", "setting": "HPPD SEQ ID NO:15; read-out: koff (k1)", "result": 0.0008, "unit": "s⁻¹"}, {"measurement": "kon", "setting": "HPPD SEQ ID NO:15; read-out: kon (k2)", "result": 70000, "unit": "M⁻¹ s⁻¹"}, {"measurement": "Kd", "setting": "HPPD SEQ ID NO:16", "result": 37.7, "unit": "nM"}, {"measurement": "koff", "setting": "HPPD SEQ ID NO:16; read-out: koff (k1)", "result": 0.002, "unit": "s⁻¹"}, {"measurement": "kon", "setting": "HPPD SEQ ID NO:16; read-out: kon (k2)", "result": 53000, "unit": "M⁻¹ s⁻¹"}, {"measurement": "Kd", "setting": "HPPD SEQ ID NO:17", "result": 18.9, "unit": "nM"}, {"measurement": "koff", "setting": "HPPD SEQ ID NO:17; read-out: koff (k1)", "result": 0.001, "unit": "s⁻¹"}, {"measurement": "kon", "setting": "HPPD SEQ ID NO:17; read-out: kon (k2)", "result": 53000, "unit": "M⁻¹ s⁻¹"}, {"measurement": "Kd", "setting": "HPPD SEQ ID NO:18", "result": 17.1, "unit": "nM"}, {"measurement": "koff", "setting": "HPPD SEQ ID NO:18; read-out: koff (k1)", "result": 0.0006, "unit": "s⁻¹"}, {"measurement": "kon", "setting": "HPPD SEQ ID NO:18; read-out: kon (k2)", "result": 35000, "unit": "M⁻¹ s⁻¹"}, {"measurement": "Kd", "setting": "HPPD SEQ ID NO:19", "result": 19.7, "unit": "nM"}, {"measurement": "koff", "setting": "HPPD SEQ ID NO:19; read-out: koff (k1)", "result": 0.00075, "unit": "s⁻¹"}, {"measurement": "kon", "setting": "HPPD SEQ ID NO:19; read-out: kon (k2)", "result": 38000, "unit": "M⁻¹ s⁻¹"}, {"measurement": "Kd", "setting": "HPPD SEQ ID NO:20", "result": 28.6, "unit": "nM"}, {"measurement": "koff", "setting": "HPPD SEQ ID NO:20; read-out: koff (k1)", "result": 0.0009, "unit": "s⁻¹"}, {"measurement": "kon", "setting": "HPPD SEQ ID NO:20; read-out: kon (k2)", "result": 31500, "unit": "M⁻¹ s⁻¹"}, {"measurement": "Kd", "setting": "HPPD SEQ ID NO:21", "result": 8.6, "unit": "nM"}, {"measurement": "koff", "setting": "HPPD SEQ ID NO:21; read-out: koff (k1)", "result": 0.0006, "unit": "s⁻¹"}, {"measurement": "kon", "setting": "HPPD SEQ ID NO:21; read-out: kon (k2)", "result": 70000, "unit": "M⁻¹ s⁻¹"}, {"measurement": "Kd", "setting": "HPPD SEQ ID NO:22", "result": 17.1, "unit": "nM"}, {"measurement": "koff", "setting": "HPPD SEQ ID NO:22; read-out: koff (k1)", "result": 0.0012, "unit": "s⁻¹"}, {"measurement": "Kd", "setting": "HPPD SEQ ID NO:23", "result": 10, "unit": "nM"}, {"measurement": "koff", "setting": "HPPD SEQ ID NO:23; read-out: koff (k1)", "result": 0.0007, "unit": "s⁻¹"}, {"measurement": "kon", "setting": "HPPD SEQ ID NO:23; read-out: kon (k2)", "result": 70000, "unit": "M⁻¹ s⁻¹"}, {"measurement": "Kd", "setting": "HPPD SEQ ID NO:24", "result": 22.4, "unit": "nM"}, {"measurement": "dissociation from HPPD SEQ ID NO:24 compared with HPPD SEQ ID NO:14", "setting": "HPPD SEQ ID NO:24; off rate, FIGS. 4A-4C", "result": "about twice as fast"}, {"measurement": "koff", "setting": "HPPD SEQ ID NO:24; read-out: koff (k1)", "result": 0.00157, "unit": "s⁻¹"}, {"measurement": "SEQ ID NO:24 superior to SEQ ID NO:14 (in vitro, in particular off rate data)", "setting": "HPPD SEQ ID NO:24; relative to SEQ ID NO:14", "result": 2, "unit": "fold"}, {"measurement": "Kd", "setting": "HPPD SEQ ID NO:25", "result": 40, "unit": "nM"}, {"measurement": "koff", "setting": "HPPD SEQ ID NO:25; read-out: koff (k1)", "result": 0.0008, "unit": "s⁻¹"}, {"measurement": "kon", "setting": "HPPD SEQ ID NO:25; read-out: kon (k2)", "result": 20000, "unit": "M⁻¹ s⁻¹"}, {"measurement": "Kd", "setting": "HPPD SEQ ID NO:26", "result": 42.9, "unit": "nM"}, {"measurement": "koff", "setting": "HPPD SEQ ID NO:26; read-out: koff (k1)", "result": 0.003, "unit": "s⁻¹"}]}
